In ChEMBL document CHEMBL1131132, “Acetylcholinesterase inhibitors: synthesis and structure-activity relationships of omega-[N-methyl-N-(3-alkylcarbamoyloxyphenyl)- methyl]aminoalkoxyheteroaryl derivatives” (J Med Chem, 1998):

Target: T1, Acetylcholinesterase (Rattus norvegicus, UniProt P37136)
T1 sequence (P37136 whole entry): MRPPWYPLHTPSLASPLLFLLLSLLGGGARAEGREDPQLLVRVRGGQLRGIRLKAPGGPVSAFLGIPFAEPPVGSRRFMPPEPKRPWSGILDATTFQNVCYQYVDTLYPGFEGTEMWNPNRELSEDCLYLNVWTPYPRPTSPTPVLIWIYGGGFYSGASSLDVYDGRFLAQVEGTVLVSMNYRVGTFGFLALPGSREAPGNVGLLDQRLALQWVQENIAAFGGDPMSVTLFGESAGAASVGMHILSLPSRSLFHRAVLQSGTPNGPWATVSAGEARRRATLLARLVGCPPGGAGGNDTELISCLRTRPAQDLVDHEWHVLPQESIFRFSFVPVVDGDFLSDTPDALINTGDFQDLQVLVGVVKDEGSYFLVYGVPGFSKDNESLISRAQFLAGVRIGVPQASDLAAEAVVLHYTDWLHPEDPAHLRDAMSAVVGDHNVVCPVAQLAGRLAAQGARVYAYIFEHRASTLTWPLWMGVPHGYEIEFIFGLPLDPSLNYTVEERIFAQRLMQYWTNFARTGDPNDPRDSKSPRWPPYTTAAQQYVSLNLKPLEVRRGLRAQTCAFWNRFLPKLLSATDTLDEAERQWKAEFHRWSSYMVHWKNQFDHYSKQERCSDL
Experiment: Inhibitory concentration against rat brain acetylcholinesterase AChE
Summary of the method: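 Adult Wistar rat cerebral cortex, stored frozen, homogenized 1:200 w/v in 25 mM phosphate pH 7.4, warmed 37 °C 5 min, spun 50000g 15 min at 4 °C; pellet resuspended as AChE-enriched fraction. Compound in PBS pH 7.4 with tritiated ACh (final 0.4 mM), 15 min at 37 °C; stopped with chloroacetic acid/NaCl/NaOH; ³H-acetate extracted into isoamyl alcohol/toluene, scintillation counted.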

With CCN(CCCOc1ccc2c(=O)c3ccccc3oc2c1)Cc1cccc(OC(=O)NC)c1 as the compound, how does the IC50 read?
Its IC50 is 4 nM.

With CCNC(=O)Oc1cccc(CN(C)CCCOc2ccc3c(=O)c4ccccc4oc3c2)c1 as the compound, how does the IC50 read?
The IC50 was 40 nM.

For CNC(=O)Oc1cccc(CN(C)CCCOc2ccc3c(=O)c4ccccc4oc3c2)c1 [XANTHOSTIGMINE], which IC50 is on record?
Its IC50 is 20 nM.
